Measurements: ChEMBL document CHEMBL3407483, “Novel 3-nitrotriazole-based amides and carbinols as bifunctional antichagasic agents” (J Med Chem, 2015)

Assays:
[1] = tested on: Trypanosoma cruzi; test: Activity of his-tagged recombinant Trypanosoma cruzi type-1 nitroreductase assessed as oxidized NADH level per mg of protein after 5 mins by absorption spectrum analysis relative to benznidazole
[2] = tested on: Trypanosoma brucei; test: Activity of his-tagged recombinant Trypanosoma brucei type-1 nitroreductase assessed as oxidized NADH level per mg of protein after 5 mins by absorption spectrum analysis relative to benznidazole
[3] = Ratio for his-tagged recombinant Trypanosoma brucei type-1 nitroreductase activity over his-tagged recombinant Trypanosoma cruzi type-1 nitroreductase activity

N#Cc1ccc(-c2ccc(NC(=O)Cn3cnc([N+](=O)[O-])n3)cc2)cc1
2: fold change (FC) [1] | fold change (FC) [2] | Ratio [3]

O=[N+]([O-])c1ncn(CC(O)(Cn2cncn2)c2ccc(F)cc2F)n1 (configuration not stated)
2: fold change (FC) [1] | fold change (FC) [2] | Ratio [3]

CC(O)(Cn1cnc([N+](=O)[O-])n1)c1ccc(-n2ccnc2)cc1 (configuration not stated)
2: fold change (FC) [1] | fold change (FC) [2] | Ratio [3]

O=[N+]([O-])c1ncn(CC(O)(Cn2cncn2)c2ccc(-c3ccccc3)cc2)n1 (configuration not stated)
2: fold change (FC) [1] | fold change (FC) [2] | Ratio [3]
